Reference: ChEMBL document CHEMBL4422638, “Discovery of Selective Toxoplasma gondii Dihydrofolate Reductase Inhibitors for the Treatment of Toxoplasmosis” (J Med Chem, 2019)

tested on: human DHFR versus Toxoplasma gondii DHFR-TS; test: in vitro

Point of comparison: `Cc1cccc(N2CCN(c3cnc(N)nc3N)CC2)c1`, selectivity ratio 79. Against it:
- Nc1ncc(N2CCN(c3cccc(C4CC4)c3)CC2)c(N)n1 — lower, 56
- Nc1ncc(N2CCN(c3ccc(Cl)cc3)CC2)c(N)n1 — lower, 24
- Nc1ncc(N2CCN(c3cccc(C(F)(F)F)c3)CC2)c(N)n1 — lower, 8.7
